What is called Ki is the dissociation constant of the complex between target and ligand, obtained from inhibition or displacement. Broadly, the EC50 is the concentration needed to bring the measured effect to its halfway point. Read a low EC50 as a more potent agent.

Amino acid sequences for entries named in this document (tags omitted).
UniProt P35372, whole entry, looked up: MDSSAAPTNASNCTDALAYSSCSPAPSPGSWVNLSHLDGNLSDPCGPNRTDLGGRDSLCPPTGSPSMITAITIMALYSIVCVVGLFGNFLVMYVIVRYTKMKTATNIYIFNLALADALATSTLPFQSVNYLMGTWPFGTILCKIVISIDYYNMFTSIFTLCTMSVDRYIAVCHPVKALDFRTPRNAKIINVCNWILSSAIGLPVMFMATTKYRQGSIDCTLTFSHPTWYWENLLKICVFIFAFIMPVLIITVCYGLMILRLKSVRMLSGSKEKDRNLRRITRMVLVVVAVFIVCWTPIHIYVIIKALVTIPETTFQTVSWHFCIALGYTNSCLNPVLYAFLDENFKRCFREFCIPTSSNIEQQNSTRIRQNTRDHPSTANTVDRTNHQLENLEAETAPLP

The values below come from ChEMBL document CHEMBL2046316, “NOpiates: Novel Dual Action Neuronal Nitric Oxide Synthase Inhibitors with μ-Opioid Agonist Activity” (2012).

For experiment [1], the target named is T1, Mu-type opioid receptor (Homo sapiens, UniProt P35372). As to the kind of experiment: Displacement of [3H]DAMGO from human mu opioid receptor expressed in HEK-293 cells by scintillation counting. Particulars: hek293. On the technique in general: In a radioligand displacement assay an active substance lowers the binding of a labelled ligand.
Experiment [2] addresses T1, Mu-type opioid receptor. To be noted: cho.

In experiment [1], `CC[C@@H](c1cccc(O)c1)[C@@H](C)CN(C)C` showed a Ki of 0.16 µM. Also, the 50% effective concentration (EC50) in experiment [2] is 0.67 µM.
